Experimental findings from paper PMC12702776, “New insights into the classification of the RAC1 P29S hotspot mutation in melanoma as an oncogene” (Cancer Gene Therapy, 2025) are described below.

What all share (conditions): both partners purified
The target of assay [1] is T1, RAC1^P29S, purified (human, UniProt P63000 1-192, P29S). In words: fluorescence polarisation; 1 µM mGppNHp-bound RAC1 titrated with GST-PAK1 RBD; 30 mM Tris-HCl pH 7.5, 50 mM NaCl, 5 mM MgCl2, 3 mM DTT, 25 °C; quadratic ligand binding equation. (Polarisation of emitted light reports the rotation of a fluorescent probe.)
Another assay concerns the target RAC1^F28L, purified (human, UniProt P63000 1-192, F28L). In words: stopped-flow fluorimetry; 0.1 µM mGppNHp-bound RAC1 rapidly mixed with increasing concentrations of GST-PAK1 RBD (association); RAC1•mGppNHp•GST-PAK1 RBD complex mixed with excess GppNHp-bound RAC1 (dissociation); Kd = koff/kon.
Assay [2] addresses T1, RAC1^P29S, purified. The assay is described as above.

B1: GST-PAK1 RBD (RAC1 binding domain of p21-activated kinase 1) (domain or fragment)
chain: SILPGDKTNKKKEKERPEISLPSDFEHTIHVGFDAVTGEFTGMPEQWARLLQTSNITKSEQKKNPQAVLDVLEFYNSKKTSNSQK
notes: not shown: GST, N-terminal, kept
As for B1, the “fold decrease of binding affinity against RAC1^WT” value in the assay with RAC1^P29S, purified [1] was 7.5 fold. In the assay with RAC1^F28L, purified, the “fold slower koff against RAC1^P29S” value was 34 fold, the “fold slower koff against RAC1^WT” value is 66 fold and the “fold slower kon against RAC1^WT” value stood at 40 fold. In addition, in the assay with RAC1^P29S, purified [2], the “fold decrease of binding affinity against RAC1^WT” value worked out at 5 fold and the “fold slower kon against RAC1^WT” value was 10 fold.
